# Data reported in patent US7625905B2, “Octahydro-pyrrolo[3,4-c]pyrrole CCR5 receptor antagonists” (Roche Palo Alto LLC, priority 2006, dated 2009).
# The chains behind the UniProt entries cited, without tags or fusion partners.
# UniProt P51681, whole entry: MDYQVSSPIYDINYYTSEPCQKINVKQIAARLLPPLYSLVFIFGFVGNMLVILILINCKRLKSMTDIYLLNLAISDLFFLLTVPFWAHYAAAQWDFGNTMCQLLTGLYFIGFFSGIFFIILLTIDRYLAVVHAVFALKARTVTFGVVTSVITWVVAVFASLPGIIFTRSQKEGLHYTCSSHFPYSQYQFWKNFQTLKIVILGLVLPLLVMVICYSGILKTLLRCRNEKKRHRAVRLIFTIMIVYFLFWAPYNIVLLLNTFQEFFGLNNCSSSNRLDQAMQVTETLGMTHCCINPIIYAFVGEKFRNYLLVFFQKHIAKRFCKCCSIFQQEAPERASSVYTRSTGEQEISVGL
# Biological target: CCR5 (Homo sapiens, UniProt P51681)
# Assay: CCR5-mediated CCF (cell-cell fusion) assay, Hela-R5 / CEM-NKr-CCR5-Luc luciferase readout
# Format: cell-based
# Set-up: host or cells: CEM-NKr-CCR5-Luc cells, co-cultured with Hela-R5 cells expressing gp160 and Tat
# Procedure: The capacity for novel compounds of the present invention to bind to the CCR5 receptor and thereby antagonize CCR5 function can be evaluated with assay systems known in the art.
# Hela-R5 cells (express gp160 from R5-tropic virus and HIV-1 Tat) were plated in 384 well white culture plates (BD Bioscience, Palo Alto, Calif.) at 7.5×10^3 cells per well in phenol red-free Dulbecco's Modified Eagle Medium (DMEM) supplemented with 10% FBS, 1× Pen-Strep, 300 μg/ml G418, 100 μg/ml hygromycin, and 1 μg/ml Doxycycline (Dox) (BD Bioscience, Palo Alto, Calif.), using Multimek (Beckman, Fullerton, Calif.) and incubated at 37° C. overnight to induce the expression of gp160. Ten μl diluted compounds in medium containing 5% DMSO were added to the cells, followed by the addition of CEM-NKr-CCR5-Luc (obtained from NIH AIDS Research & Reference Reagents Program) that expresses CD4 and CCR5 and carries a HIV-2 long terminal repeat (LTR)-driven luciferase reporter gene at 1.5×10^4 cells/15 μL/well and incubated for 24 hrs. At the end of co-culture, 15 μl of Steady-Glo luciferase substrate was added into each well, and the cultures were sealed and gently shaken for 45 min. The luciferase activity were measured for 10 sec per well as luminescence by using 16-channel TopCount NXT (PerkinElmer, Shelton, Conn.) with 10 min dark adaptation and the readout is count per second (CPS). […]
structure (smiles),measurement,value
"Cc1cc(C#N)nc(C)c1C(=O)N1CC2CN(CCC(c3ccccc3)C3CCN(S(C)(=O)=O)CC3)CC2C1 (stereo not shown) [V-24, 5-{5-[3-(1-Methanesulfonyl-piperidin-4-yl)-3-phenyl-propyl]-hexahydro-pyrrolo[3,4-c]pyrrole-2-carbonyl}-4,6-dimethyl-pyridine-2-carbonitrile]",pIC50,8.89

# pIC50: −log10 of the molar value.
